Source: patent US9273055B2 (dated 2016)

Amino acid sequences for entries named in this document (tags omitted). Residues count along the entry.
UniProt Q9UM73, 1060-1620 R1275Q limits assumed: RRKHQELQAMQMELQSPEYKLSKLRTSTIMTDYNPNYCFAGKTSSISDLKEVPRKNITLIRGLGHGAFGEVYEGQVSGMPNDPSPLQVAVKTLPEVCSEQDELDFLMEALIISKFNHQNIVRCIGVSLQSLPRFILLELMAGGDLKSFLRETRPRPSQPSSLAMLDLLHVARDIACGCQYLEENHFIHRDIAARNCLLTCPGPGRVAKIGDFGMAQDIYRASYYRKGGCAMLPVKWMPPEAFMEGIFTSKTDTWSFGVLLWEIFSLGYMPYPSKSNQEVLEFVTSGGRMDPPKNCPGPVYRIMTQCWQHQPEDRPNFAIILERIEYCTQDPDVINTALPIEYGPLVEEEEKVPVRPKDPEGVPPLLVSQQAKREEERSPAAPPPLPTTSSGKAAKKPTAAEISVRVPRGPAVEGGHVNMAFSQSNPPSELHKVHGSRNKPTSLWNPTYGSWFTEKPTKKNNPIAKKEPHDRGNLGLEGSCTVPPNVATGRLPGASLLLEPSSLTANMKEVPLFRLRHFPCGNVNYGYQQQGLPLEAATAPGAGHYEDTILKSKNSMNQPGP
UniProt P04629, 33-796: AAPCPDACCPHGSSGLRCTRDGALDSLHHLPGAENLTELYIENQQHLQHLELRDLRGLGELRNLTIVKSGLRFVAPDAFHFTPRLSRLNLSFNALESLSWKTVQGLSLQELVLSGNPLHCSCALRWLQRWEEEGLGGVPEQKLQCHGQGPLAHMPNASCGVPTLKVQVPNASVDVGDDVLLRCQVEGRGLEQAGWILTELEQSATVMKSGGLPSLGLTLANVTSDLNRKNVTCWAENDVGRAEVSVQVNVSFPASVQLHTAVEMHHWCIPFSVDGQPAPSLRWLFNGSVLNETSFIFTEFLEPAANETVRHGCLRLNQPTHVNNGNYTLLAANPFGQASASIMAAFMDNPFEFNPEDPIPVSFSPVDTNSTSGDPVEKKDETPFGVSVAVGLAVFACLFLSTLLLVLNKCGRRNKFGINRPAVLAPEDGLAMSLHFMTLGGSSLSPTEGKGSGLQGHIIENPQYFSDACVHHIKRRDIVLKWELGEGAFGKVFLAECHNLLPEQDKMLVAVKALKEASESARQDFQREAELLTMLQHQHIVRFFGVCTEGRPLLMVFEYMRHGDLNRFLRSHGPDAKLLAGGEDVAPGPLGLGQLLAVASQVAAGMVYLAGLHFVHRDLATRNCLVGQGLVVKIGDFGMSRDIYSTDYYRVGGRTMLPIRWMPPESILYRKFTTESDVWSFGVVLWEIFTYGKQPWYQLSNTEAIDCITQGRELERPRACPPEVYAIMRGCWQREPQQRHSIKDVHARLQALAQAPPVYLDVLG
UniProt Q16620, 32-822: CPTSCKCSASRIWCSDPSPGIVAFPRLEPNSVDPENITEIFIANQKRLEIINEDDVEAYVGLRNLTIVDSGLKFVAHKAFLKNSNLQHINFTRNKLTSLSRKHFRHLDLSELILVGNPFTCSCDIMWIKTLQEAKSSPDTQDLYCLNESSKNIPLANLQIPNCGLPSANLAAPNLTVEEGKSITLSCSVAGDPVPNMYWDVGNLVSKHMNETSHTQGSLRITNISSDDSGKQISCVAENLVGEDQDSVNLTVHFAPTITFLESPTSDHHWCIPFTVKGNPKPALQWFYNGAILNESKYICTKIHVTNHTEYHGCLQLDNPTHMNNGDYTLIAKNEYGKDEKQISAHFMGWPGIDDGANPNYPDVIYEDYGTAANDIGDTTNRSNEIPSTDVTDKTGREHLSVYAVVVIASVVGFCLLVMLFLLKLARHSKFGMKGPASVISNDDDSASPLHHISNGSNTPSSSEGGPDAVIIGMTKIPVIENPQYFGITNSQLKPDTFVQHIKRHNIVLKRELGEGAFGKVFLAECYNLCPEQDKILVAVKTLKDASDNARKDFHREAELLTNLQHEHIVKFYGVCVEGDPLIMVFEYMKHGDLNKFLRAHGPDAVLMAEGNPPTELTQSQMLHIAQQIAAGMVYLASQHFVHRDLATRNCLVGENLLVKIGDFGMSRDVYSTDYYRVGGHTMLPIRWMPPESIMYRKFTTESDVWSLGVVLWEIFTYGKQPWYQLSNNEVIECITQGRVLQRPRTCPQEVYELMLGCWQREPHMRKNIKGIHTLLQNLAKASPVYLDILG

Key:
ALK R1275Q = ALK R1275Q (Homo sapiens, UniProt Q9UM73, R1275Q); experiment: Cell free kinase assay (Carna Biosciences kinases), ALK R1275Q
TrkA = TrkA (Homo sapiens, UniProt P04629); experiment: In vitro kinase activity assay (LANCE TR-FRET), TrkA; assay type: biochemical; conditions: read-out: TrKA IC50
TrkB = TrkB (Homo sapiens, UniProt Q16620); experiment: In vitro kinase activity assay (LANCE TR-FRET), TrkB; assay type: biochemical

“2-(4-(1-(5-Fluoro-2-methylphenyl)propan-2-ylamino)-2-oxo-1,2-dihydropyridin-3-yl)-6-(2-(dimethylamino)ethyl)-6,7-dihydroimidazo[4,5-f]isoindole-5(1H)-one [Compound 45]” was tested, and the “cell free R1275Q resistance” value (ALK R1275Q) was 4 fold.

Work on “(S)-6-(2-(Dimethylamino)ethyl)-2-(2-oxo-4-((1-(2,3,5,6-tetrafluorophenyl)propan-2-yl)amino)-1,2-dihydropyridin-3-yl)-6,7-dihydroimidazo[4,5-f]isoindol-5(3H)-one [Compound 1]” yielded an IC50 (TrkA) of 1 nM.

For `C[C@@H](Cc1c(F)c(F)cc(F)c1F)Nc1cc[nH]c(=O)c1-c1nc2cc3c(cc2[nH]1)CN(C1CCN(C)CC1)C3=O` [Compound 4, (S)-6-(1-Methylpiperidin-4-yl)-2-(2-oxo-4-(1-(2,3,5,6-tetrafluorophenyl)propan-2-ylamino)-1,2-dihydropyridin-3-yl)-6,7-dihydroimidazo[4,5-f]isoindol-5(3H)-one], the IC50 (TrkB) was 3.48 nM.
